# Source: the kinase profiling compilation of Christmann-Franck et al. (2016)
# Amino acid sequences for entries named in this document (tags omitted). A change or cut given only in a name is not applied to a line headed by its entry.
# UniProt P49840: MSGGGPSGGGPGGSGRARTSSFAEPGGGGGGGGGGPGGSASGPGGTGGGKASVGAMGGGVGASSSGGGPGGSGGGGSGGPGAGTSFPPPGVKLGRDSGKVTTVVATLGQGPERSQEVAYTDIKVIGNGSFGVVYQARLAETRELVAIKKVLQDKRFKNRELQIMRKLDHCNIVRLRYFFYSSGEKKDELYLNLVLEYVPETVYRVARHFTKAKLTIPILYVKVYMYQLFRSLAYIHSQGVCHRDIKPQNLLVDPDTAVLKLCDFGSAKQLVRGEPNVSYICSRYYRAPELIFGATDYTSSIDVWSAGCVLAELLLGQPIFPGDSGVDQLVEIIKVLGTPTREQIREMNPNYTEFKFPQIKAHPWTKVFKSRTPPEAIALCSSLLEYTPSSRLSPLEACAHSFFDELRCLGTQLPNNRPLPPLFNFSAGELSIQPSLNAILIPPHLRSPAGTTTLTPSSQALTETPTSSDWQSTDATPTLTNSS
# Molecular target: GSK3A (human) (UniProt P49840)
smiles,measurement,value
CN1CC[C@H](c2c(O)cc(O)c3c(=O)cc(-c4ccccc4Cl)oc23)[C@H](O)C1,IC50,8.7 µM
